According to patent US20140213575A1, “6H-Thieno[3,2-f][1,2,4]triazolo[4,3-a][1,4]diazepines” (BAYER INTELLECTUAL PROPERTY GMBH, priority 2011, published 2014):

Test: In-vivo tolerability in the mouse
Design: species or system female NMRI nude mice
Details: female, NMRI nude, oral, twice daily, after 5 days of treatment, read-out: maximum tolerated treatment dose (MTD), twice daily administration
Protocol: The substances were formulated in NMP/PEG300 (1/9 V/V). They were administered orally, in an amount of 10 ml/kg, once or twice daily for a period of 5 to 7 days to female NMRI nude mice (6-8 weeks old; 3 animals per group). Body weight and mortality of the mice were monitored daily up to the end of the study. Toxicity was defined as follows: ≧10% substance-induced deaths or ≧20% weight loss.

## Cc1sc2c(c1C)C(c1ccc(Cl)cc1)=N[C@@H](CC(=O)OC(C)(C)C)c1nnc(C)n1-2 [Example V1, tert-Butyl[(S)-4-(4-chlorophenyl)-2,3,9-trimethyl-6H-thieno[3,2-f][1,2,4]triazolo[4,3-a][1,4]diazepin-6-yl]acetate, reference compound]
  MTD at 5 days: 50 mg/kg
